The target in experiment [1] is T1, syntaxin 1A carboxyl-terminal domain (amino acids 194-267), soluble recombinant (rat).
T1 chain: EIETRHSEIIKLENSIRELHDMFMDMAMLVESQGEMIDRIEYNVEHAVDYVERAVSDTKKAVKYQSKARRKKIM
Kind of experiment: SPR competition: inhibition of the binding of the carboxyl-terminal domain (5.5 µM) to immobilized VAMP 2 cytoplasmic domain, FIG. 10A.

Experiment [2] concerns the target GST (glutathione-S-transferase) alone, immobilized on glutathione agarose beads (Schistosoma japonicum, UniProt P08515 = GST). Kind of experiment: 20S complex assembly control on GST beads, Western blot (FIG. 6A).

B1: syntaxin 1A amino-terminal domain (amino acids 4-193), recombinant (other)
chain: RTQELRTAKDSDDDDDVTVTVDRDRFMDEFFEQVEEIRGFIDKIAENVEEVKRKHSAILASPNPDEKTKEELEELMSDIKKTANKVRSKLKSIEQSIEQEEGLNRSSADLRIRKTQHSTLSRKFVEVMSEYNATQSDYRERCKGRIQRQLEITGRTTTSEELEDMLESGNPAIFASGIIMDSSISKQALS
As usually defined, the IC50 is the concentration at which inhibition is half-maximal. Regarding B1, the IC50 in experiment [1] was about 3000 nM.

B2: VAMP (vesicle-associated membrane protein; VAMP 2), soluble recombinant (other)
chain: not shown
Take B2: in experiment [2], the binding result is “no binding (tested: 2 µM)”.

The record behind these values is patent US5693476 (The Board of Trustees of the Leland Stanford Junior …, dated 1997).
